Molecular target: T1, MDR pumps (Pdr5p) of yeast cells (Saccharomyces cerevisiae, UniProt P33302)
T1 construct: We measured the efflux of R6G from intact yeast cells using fluorometric method; endogenous in cells; host or cells: S. cerevisiae W303-1A (WT); AD1-8 as MDR-negative control
Assay type: cell-based
Details: 2 μM compound
Description: The ordinate corresponds to the ratio of slopes in a and b.
To measure the relative rate of rhodamine 6G efflux we used fluorometric assay implemented by Kolaczkowsky et al., with few modifications. Cells were grown overnight in 40 ml in liquid YPD to density of 0.5-1*10^7 cells/ml, washed twice with cold sterile water and resuspended in 10 ml phosphate buffer saline supplemented with 5 mM 2-deoxyglucose and 2.5 mM 2,4-dinitrophenol. Cell suspension was incubated for 45 minutes on a rotatory shaker, then the inhibitors were removed by two cycles of centrifugation/resuspension in cold water. The energy deprived cells were resuspended in 10 ml of PBS and then stained with R6G (10 μM) for 30 minutes. Then cell suspension was pelleted, resuspended in equal volume of PBS and stored on ice for 1-5 hours. The measurements of efflux were performed with FluoroMax-3 fluorometer system with exication wavelength set to 480 nm, and emission wavelength set to 560 nm. The R6G efflux was initiated by addition of 0.1% glucose, cell density in fluorometric cuvette was 10^6 cells/ml.

The chains behind the UniProt entries cited, without tags or fusion partners. Where a name states a change or a piece, a line headed by the entry shows the natural chain unless it says otherwise.
UniProt P33302: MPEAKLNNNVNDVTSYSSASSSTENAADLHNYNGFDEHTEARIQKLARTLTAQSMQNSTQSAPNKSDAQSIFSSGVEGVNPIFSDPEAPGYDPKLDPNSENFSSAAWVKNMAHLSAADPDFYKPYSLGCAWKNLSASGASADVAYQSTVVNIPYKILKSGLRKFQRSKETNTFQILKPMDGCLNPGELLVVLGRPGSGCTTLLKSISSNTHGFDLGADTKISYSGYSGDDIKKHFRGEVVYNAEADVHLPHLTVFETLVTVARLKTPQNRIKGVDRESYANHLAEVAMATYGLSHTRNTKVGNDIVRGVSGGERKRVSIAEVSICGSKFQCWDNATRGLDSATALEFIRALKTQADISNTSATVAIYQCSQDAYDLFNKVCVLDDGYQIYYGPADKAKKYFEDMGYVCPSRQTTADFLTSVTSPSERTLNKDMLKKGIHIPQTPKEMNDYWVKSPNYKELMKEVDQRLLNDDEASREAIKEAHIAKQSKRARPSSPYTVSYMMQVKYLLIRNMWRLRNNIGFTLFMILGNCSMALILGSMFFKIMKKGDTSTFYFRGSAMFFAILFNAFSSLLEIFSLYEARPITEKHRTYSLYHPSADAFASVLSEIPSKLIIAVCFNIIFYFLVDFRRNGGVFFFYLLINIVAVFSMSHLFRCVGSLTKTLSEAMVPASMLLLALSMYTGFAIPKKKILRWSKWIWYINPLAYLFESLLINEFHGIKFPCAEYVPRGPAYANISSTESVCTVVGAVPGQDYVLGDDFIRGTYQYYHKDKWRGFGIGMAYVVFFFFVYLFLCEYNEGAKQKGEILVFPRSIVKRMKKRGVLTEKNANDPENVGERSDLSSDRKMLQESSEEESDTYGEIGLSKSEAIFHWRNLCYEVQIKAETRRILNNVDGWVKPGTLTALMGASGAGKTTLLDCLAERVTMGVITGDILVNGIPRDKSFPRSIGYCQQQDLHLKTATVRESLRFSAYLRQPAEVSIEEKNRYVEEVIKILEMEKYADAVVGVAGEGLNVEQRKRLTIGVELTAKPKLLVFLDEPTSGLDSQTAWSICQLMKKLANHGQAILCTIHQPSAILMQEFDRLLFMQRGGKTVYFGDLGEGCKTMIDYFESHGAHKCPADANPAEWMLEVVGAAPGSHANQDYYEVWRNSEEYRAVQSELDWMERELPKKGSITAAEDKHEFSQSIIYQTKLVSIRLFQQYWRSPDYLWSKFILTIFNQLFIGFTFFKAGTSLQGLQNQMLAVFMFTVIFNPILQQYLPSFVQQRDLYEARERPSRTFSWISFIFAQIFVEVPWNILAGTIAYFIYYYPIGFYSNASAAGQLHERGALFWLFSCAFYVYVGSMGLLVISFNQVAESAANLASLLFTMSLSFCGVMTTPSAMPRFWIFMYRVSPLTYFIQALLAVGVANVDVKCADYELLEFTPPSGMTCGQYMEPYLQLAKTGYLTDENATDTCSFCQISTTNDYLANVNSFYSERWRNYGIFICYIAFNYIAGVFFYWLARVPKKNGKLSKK

## cyanide p-trifluoro-methoxyphenyl hydrazone [FCCP, reference compound]
  inhibition of glucose-induced R6G efflux from yeast cells: partially prevent R6G efflux
Cells pretreated with 10 mM NaN3
  inhibition of glucose-induced R6G efflux from yeast cells pretreated with NaN3: inhibits glucose-induced R6G efflux
